From patent US20190076384A1, “METHODS FOR TREATING UREA CYCLE DISORDERS” (priority 2017, published 2019)

System: CYP3A4/5
Assay type: in vitro ADME, human
Settings: in vitro; testosterone 6-hydroxylase activity

Q: phenylbutyrate [PBA] was tested. Which “kind of inhibition of CYP3A4/5” value did it give?
A: reversible inhibitor
